Patent US8507439B2, “Neuroprotective and neurorestorative method and compositions” (priority 2005, dated 2013)

Tests used:
N27 dopaminergic cells = test: Survival of N27 dopaminergic cells in the presence of 300 μM MPP+ neurotoxic agent; type: cell-based, rat; settings: 39 μM peptide + 300 μM MPP+
Caspase-3 = Caspase-3 immunoblot of SHSY whole cell lysates; type: cell-based, human; settings: 20 μM Yankner + BTX-639
Procedure: Aliquots of 2×10^6 SHSY cells were plated into each of 7 T-25 cell culture flasks with 5 ml of medium containing 2 mM Staurosporine (a known neuronal apoptosis stimulator). Results are shown in FIG. 3 with (Marker lane M), 20 μM Yankner peptide (middle lanes), and 20 μM Yankner+BTX-639 (right lane). Flasks were incubated at 37° C. in a 5% CO2 incubator for 0, 12, 24, 48, or 72 hours (as indicated in FIG. 3), then whole cell lysates were prepared as described in Methods. Caspase-3 immuoblots were performed on 20 μg of total cellular protein per lane. Numbers to the left of the figure denote the sizes in kDa of the marker protein (Biorad Broad Scope). The position of Caspase-3 at the expected size of 32 kDa is denoted on the right of the figure. BTX-639 is the peptide DQ (SEQ ID NO:2).

[1] = system: SH-SY5Y human neuroblastoma cells; test: Protection of SH-SY5Y neuroblastoma cells from Yankner peptide (b/A4), LDH content of remaining cells; type: cell-based; settings: 0.4 μM peptide + 20 μM Yankner peptide
Excerpt: A characteristic constituent of Alzheimer's Disease (AD) is the formation of plaques from the 39-43 amino acid long peptide derived from amyloid protein (Selkoe, D. TINS (1993) 16: 403-409). This molecule (b/A4) can be toxic to mammalian nerve cells. […] Yankner et al. (Science (1990) 250: 279-282) has developed this property in a culture method as an AD assay procedure. We have adapted this to test the efficacy of SEQ ID NO: 2 as a neuroprotective and/or neurorestorative peptide in the AD culture model.
In conjunction with Prof David Adams (WPI. Worcester, Mass.), the following two methods have been used to test the efficacy of SEQ ID NO: 2 in protecting SH-SY5Y human neuroblastoma cells from the toxic effects if b/A4.
Differentiated cultures of SH-SY5Y Human neuroblastoma cells were grown to a stage where the cells formed a network of neurites. The cultures consisting of an untreated control, and two experimental groups (1) treated with b/A4 and (2) with b/A4+ SEQ ID NO: 2. At day 3, after removal of the supernatant and the debris from dead cells by 3 washes with saline, the cells were then lysed and their LDH content was assayed for cell survival by measuring the LDH present in the remaining cells. The results were compared to LDH present in untreated controls, that were incubated for 3 days with no peptide additives (Table 7). The assay assumes that the LDH content of healthy cells remains constant and can be used as an index of living cells. The experiments using anoxia in our previous work were in agreement with this assumption.
This experiment was performed in the method described above for Example 6, Experiment 1, except that the cells were incubated for 4 days instead of 3 to enhance the degenerative effect of the Yankner peptide. At the end of the experiment the cultures were washed in saline containing 0.01% triton X-100 to remove all released LDH and cellular debris before lysis and analysis for LDH content of the surviving cells (Table 8).

SHSY cells = test: LDH levels in residual surviving SHSY cells after Yankner peptide; type: cell-based, human
Procedure: In a tissue culture model for Alzheimer's disease, treatment with the Yankner peptide (amyloid fragment) causes cell death within 3 days. […] By studying the time course of cell death in this culture model for Alzheimer's disease, it was determined that about 60% of the cells die within 24 hrs. When the neuroprotective/neurorestorative peptide of the invention was added to the cells at the 24 hour time point (e.g., 24 hours after the cells were contacted with the Yankner peptide), over 40% of the injured neurons that were destined to die on day 3 were rescued.
Aliquots of 3×10^5 SHSY cells were plated in each well of a 24-well microtiter plate in 1 ml of medium containing no peptides (control=Ctrl), 20 μM Yankner peptide (Yankner), 20 μM Yankner peptide+75 μM DQ peptide (SEQ ID NO:2) added at time of plating (Yankner+BTX Simultaneous), or 20 μM Yankner+75 μM BTX-639 added 24 hr post plating (Yankner+BTX 24 Hr Post). Plates were incubated at 37° C. in a 5% CO2 incubator for 3 days, then each well was washed twice with 1×PBS to remove loosely bound cells. Whole cell lysates were prepared from the remaining attached (viable) cells, and Lactate dehydrogenase (LDH) activity measured as described in methods. The results are illustrated in FIG. 2, in which each histobar represents the mean of 11 independent trials. Error bars denote one standard deviation. […]

Substance | % Rescue per Treatment time 0 hours (N27 dopaminergic cells) [%] | % Rescue per Treatment time 24 hours (N27 dopaminergic cells) [%] | effect on cellular level of Caspase-3 (in words) (Caspase-3) | % Survival ([1]; 3 days) [%] | OD 490 nm ([1]; 3 days) [OD 490 nm] | % Survival ([1]; 4 days) [%] | OD 490 nm ([1]; 4 days) [OD 490 nm] | injured neurons destined to die on day 3 that were rescued (SHSY cells; peptide added 24 hours after the cells were contacted with the Yankner peptide) | rescue from cell death (in words) (SHSY cells; peptide added together with the amyloid fragment)
EV | 100 ± 2 | 30 ± 7 | – | – | – | – | – | – | –
SEQ ID NO: 2 (DQ) | – | – | reduced the effect of the Yankner peptide on the level of Caspase-3 | 100 | 0.935 | 64.1 | 0.287 | over 40% | rescued the cells from cell death
